According to ChEMBL document CHEMBL1154364, “2-Benzimidazolyl-9-(chroman-4-yl)-purinone derivatives as JAK3 inhibitors” (Bioorg Med Chem Lett, 2009):

Target: T1, Tyrosine-protein kinase JAK3 (Homo sapiens, UniProt P52333)
T1 sequence (P52333 whole entry): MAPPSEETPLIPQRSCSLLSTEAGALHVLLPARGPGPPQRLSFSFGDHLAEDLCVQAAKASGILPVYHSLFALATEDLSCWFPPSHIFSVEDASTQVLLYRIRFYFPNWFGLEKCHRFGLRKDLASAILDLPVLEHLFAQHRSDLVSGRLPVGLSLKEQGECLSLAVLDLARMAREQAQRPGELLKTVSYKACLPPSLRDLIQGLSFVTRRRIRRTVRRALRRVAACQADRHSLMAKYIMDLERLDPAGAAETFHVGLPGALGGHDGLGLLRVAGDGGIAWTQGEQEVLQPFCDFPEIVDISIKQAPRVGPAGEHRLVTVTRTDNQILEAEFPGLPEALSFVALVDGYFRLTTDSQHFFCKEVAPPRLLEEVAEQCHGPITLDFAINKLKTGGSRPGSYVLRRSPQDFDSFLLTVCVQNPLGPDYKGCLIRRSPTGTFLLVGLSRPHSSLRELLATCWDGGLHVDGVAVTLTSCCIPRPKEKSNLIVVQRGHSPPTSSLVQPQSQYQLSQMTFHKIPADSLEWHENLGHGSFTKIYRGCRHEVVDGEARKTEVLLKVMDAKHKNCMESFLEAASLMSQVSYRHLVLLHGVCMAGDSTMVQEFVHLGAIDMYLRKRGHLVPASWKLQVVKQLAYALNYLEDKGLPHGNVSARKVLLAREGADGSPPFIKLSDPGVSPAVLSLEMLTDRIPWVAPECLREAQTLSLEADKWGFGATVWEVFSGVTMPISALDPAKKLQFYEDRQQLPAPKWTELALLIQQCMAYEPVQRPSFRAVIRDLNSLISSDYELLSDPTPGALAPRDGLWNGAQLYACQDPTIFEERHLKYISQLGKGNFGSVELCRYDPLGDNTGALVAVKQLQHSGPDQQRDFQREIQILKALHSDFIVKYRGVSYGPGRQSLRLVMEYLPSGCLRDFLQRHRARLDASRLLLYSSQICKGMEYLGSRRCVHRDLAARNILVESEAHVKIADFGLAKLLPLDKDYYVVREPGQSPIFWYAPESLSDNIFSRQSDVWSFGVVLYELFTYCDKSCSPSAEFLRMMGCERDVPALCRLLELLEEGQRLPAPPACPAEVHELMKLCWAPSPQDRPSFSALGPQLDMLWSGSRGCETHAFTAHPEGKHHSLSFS

Row | SMILES | IC50 [nM]
1 | N#Cc1ccc2ncn(-c3ncc4[nH]c(=O)n(Cc5cccc(F)c5F)c4n3)c2c1 | 17
2 | O=c1[nH]c2cnc(-n3cnc4ccc(F)cc43)nc2n1Cc1cccc(F)c1F | 108
3 | O=c1[nH]c2cnc(-n3cnc4cc(C(F)(F)F)ccc43)nc2n1C1CCOCC1 | 245

Other lines, results leading:

Row | IC50 [nM] | SMILES
4 | 28 | O=c1[nH]c2cnc(-n3cnc4ccccc43)nc2n1C1CCOc2ccc(F)cc21 (racemic)
5 | 30 | O=c1[nH]c2cnc(-n3cnc4ccccc43)nc2n1C1CCOc2c(F)cccc21 (racemic)
6 | 540 | O=c1[nH]c2cnc(-n3cnc4ccccc43)nc2n1[C@H]1CCOc2c(F)cccc21
7 | 260 | O=c1[nH]c2cnc(-n3cnc4ccccc43)nc2n1C1CCOc2cc(F)ccc21 (racemic)
8 | 28 | O=c1[nH]c2cnc(-n3cnc4ccccc43)nc2n1[C@@H]1CCOc2c(F)cccc21
